Holding throughout (format): in vivo, human tumor in B-NDG mice
The test system of assay [1] is human pancreatic tumor PDX. The experiment in a line: anti-tumor activity in human pancreatic PDX model. Particulars: for Tumor volume Day 0: day of grouping (baseline). As to the method: The ADCs were tested for their effects on tumor growth in vivo in human pancreatic tumor PDX models. Immunofluorescence staining of patient-derived tumor fragments was performed and the images were analyzed via HALO 3.2 version.
Specifically, B-NDG mice (Biocytogen Pharmaceuticals (Beijing) Co., Ltd., Cat #: B-CM-002) were engrafted in the right flank with patient-derived pancreatic tumor fragments (2 mm×2 mm×2 mm). When the tumors in the mice reached a volume of about 200-300 mm3, the mice were randomly placed into different groups based on the volume of the tumor. The mice were then injected with PBS or ADCs by intravenous (i.v.) administration at a dosage of 3 mg/kg or 6 mg/kg (1 administration in total).
(§1) The lengths of the long axis and the short axis of the tumor were measured and the volume of the tumor was calculated as 0.5×(long axis)×(short axis)2. […] Ti is the average tumor volume in the treatment group on day i. T0 is the average tumor volume in the treatment group on day zero. Vi is the average tumor volume in the control group on day i. V0 is the average tumor volume in the control group on day zero. T-test was performed for statistical analysis. […] P<0.05 is a threshold to indicate significant difference. The body weights of the mice were also measured throughout the entire administration period.

A further assay concerns human breast tumor PDX. Briefly: anti-tumor activity in human breast PDX model (Example 6). Particulars: 6 mg/kg i.v. every two weeks x2. As to the method:
as §1
The ADCs were tested for their effects on tumor growth in vivo in human breast tumor PDX models. Immunofluorescence staining of patient-derived tumor fragments was performed and the images were analyzed via HALO 3.2 version.
Specifically, B-NDG mice were engrafted in the right flank with patient-derived pancreatic tumor fragments (2 mm×2 mm×2 mm). When the tumors in the mice reached a volume of about 200-300 mm3, the mice were randomly placed into different groups based on the volume of the tumor. The mice were then injected with PBS or ADCs by intravenous (i.v.) administration at a dosage of 6 mg/kg. The frequency of administration was once every two weeks (2 administrations in total).

The next assay concerns human lung cancer PDX. Briefly: anti-tumor activity in human lung cancer PDX model. Particulars: for Tumor volume Day 0: day of grouping (baseline). On the procedure:
as §1
(§2) The ADCs were tested for their effects on tumor growth in vivo in human lung, colorectal or gastric tumor PDX models. Immunofluorescence staining of patient-derived tumor fragments was performed and the images were analyzed via HALO 3.2 version.
(§3) Specifically, B-NDG mice were engrafted in the right flank with patient-derived lung, colorectal or gastric tumor fragments (2 mm×2 mm×2 mm). When the tumors in the mice reached a volume of about 200-300 mm3, the mice were randomly placed into different groups based on the volume of the tumor.
(§4) The mice were injected with PBS or ADCs by intravenous (i.v.) administration at a dosage of 6 mg/kg (1 administration in total).

For assay [2], the system named is human colorectal cancer PDX. Briefly: anti-tumor activity in human colorectal cancer PDX model. The settings on record: 6 mg/kg i.v. once. On the procedure: as §1, §2, §3, §4

For “T-GGFG-Dxd: Trastuzumab analog coupled with GGFG-Dxd (Deruxtecan), mean n 8.14 [reference compound]”, in assay [1] (3 mg/kg i.v. once), the “TGI (Day 21)” value turned out to be 30.5%, the “Tumor volume Day 14” value was 737 ± 81 mm^3, the “Tumor volume Day 21” value is reported as 1305 ± 130 mm^3 and the “Tumor volume Day 0” value came out at 242 ± 17 mm^3. Moreover, in assay [1] (6 mg/kg i.v. once), the “TGI (Day 21)” value was 22.6%, the “Tumor volume Day 14” value was determined as 731 ± 89 mm^3, the “Tumor volume Day 21” value was 1426 ± 134 mm^3 and the “Tumor volume Day 0” value is 242 ± 13 mm^3. In addition, in the assay on human breast tumor PDX, the “TGI (Day 28)” value is listed as 46.6%, the “Tumor volume Day 18” value is 638 ± 64 mm^3 and the “Tumor volume Day 28” value turned out to be 1251 ± 149 mm^3. Besides, the “Tumor volume Day 0” value in the assay with human breast tumor PDX (day of grouping (baseline)) was determined as 214 ± 11 mm^3. In addition, in the assay on human lung cancer PDX (3 mg/kg i.v. once), the “TGI (Day 23)” value was 16.5%, the “Tumor volume Day 13” value is 779 ± 172 mm^3, the “Tumor volume Day 23” value is listed as 1558 ± 323 mm^3 and the “Tumor volume Day 0” value is reported as 184 ± 23 mm^3. In addition, in the assay with human lung cancer PDX (6 mg/kg i.v. once), the “TGI (Day 23)” value was determined as 28.2%, the “Tumor volume Day 13” value was 503 ± 47 mm^3, the “Tumor volume Day 23” value is listed as 1364 ± 109 mm^3 and the “Tumor volume Day 0” value was 184 ± 16 mm^3. Besides, in assay [2], the “TGI (Day 28)” value is recorded as 55.8%, the “Tumor volume Day 14” value worked out at 214 ± 45 mm^3 and the “Tumor volume Day 28” value is reported as 506 ± 115 mm^3. For the same substance, the “Tumor volume Day 0” value in assay [2] (day of grouping (baseline)) turned out to be 146 ± 5 mm^3.

With “T-VC-MMAE: Trastuzumab analog coupled with VC-MMAE, mean n 4.0 [reference compound]”, the “TGI (Day 21)” value was found to be 44.9% in assay [1] (3 mg/kg i.v. once) and 60.7% in assay [1] (6 mg/kg i.v. once).

For the origin of these results see patent US20260315611A1, “LINKER COMPOUNDS AND LIGAND-DRUG CONJUGATES, PREPARATION METHODS AND USES THEREOF” (Biocytogen Pharmaceuticals (Beijing) Co., Ltd., priority 2023, published 2026).
